This assay deals with Human NR1-1a/NR2A NMDA receptor (Homo sapiens, UniProt Q05586+Q12879). As to conditions: glutamate 10 μM and glycine 10 μM added together, +50 mV, bulk current, n=5.

Amino acid sequences for entries named in this document (tags omitted). Residues count along the entry.
UniProt Q12879, 23-1464: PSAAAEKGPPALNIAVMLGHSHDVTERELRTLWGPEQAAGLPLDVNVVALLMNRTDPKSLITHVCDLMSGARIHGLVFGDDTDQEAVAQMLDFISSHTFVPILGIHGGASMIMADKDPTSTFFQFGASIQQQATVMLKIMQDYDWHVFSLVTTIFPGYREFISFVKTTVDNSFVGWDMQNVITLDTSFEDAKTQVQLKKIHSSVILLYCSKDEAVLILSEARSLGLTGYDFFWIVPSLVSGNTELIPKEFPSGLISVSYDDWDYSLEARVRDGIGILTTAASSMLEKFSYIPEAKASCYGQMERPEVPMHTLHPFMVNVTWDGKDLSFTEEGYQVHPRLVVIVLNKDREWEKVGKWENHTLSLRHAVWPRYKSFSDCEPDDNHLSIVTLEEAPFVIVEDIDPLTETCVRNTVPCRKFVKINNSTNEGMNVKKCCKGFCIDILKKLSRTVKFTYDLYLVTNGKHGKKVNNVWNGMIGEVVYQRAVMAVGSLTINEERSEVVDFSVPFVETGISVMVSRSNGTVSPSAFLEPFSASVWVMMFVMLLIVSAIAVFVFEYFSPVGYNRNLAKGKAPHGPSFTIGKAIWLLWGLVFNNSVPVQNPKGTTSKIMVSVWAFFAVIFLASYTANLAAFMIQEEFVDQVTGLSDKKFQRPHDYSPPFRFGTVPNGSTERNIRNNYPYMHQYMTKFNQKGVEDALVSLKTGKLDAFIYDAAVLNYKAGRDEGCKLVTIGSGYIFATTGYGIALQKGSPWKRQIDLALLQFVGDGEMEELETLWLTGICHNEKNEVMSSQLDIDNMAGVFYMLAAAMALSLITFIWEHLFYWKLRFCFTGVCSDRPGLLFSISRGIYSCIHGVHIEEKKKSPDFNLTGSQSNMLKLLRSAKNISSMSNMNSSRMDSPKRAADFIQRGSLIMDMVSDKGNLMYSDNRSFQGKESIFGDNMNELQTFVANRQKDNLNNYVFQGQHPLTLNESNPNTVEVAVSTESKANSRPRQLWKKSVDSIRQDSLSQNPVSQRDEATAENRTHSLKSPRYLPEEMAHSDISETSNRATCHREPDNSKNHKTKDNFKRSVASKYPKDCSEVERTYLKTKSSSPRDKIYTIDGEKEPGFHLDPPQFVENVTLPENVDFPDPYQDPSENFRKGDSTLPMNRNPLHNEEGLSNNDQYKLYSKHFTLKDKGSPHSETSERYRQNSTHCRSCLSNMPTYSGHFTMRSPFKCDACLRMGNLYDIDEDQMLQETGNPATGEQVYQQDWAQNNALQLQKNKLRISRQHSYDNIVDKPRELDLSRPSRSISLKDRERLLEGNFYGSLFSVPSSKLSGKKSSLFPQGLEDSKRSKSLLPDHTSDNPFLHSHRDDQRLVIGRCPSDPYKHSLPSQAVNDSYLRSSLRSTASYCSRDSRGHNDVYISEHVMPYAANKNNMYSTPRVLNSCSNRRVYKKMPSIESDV

Structures are written as SMILES.

With `N[C@@H](CCC(=O)O)C(=O)O` [glutamate], the “increase in ionic flux” value is 98%.

These data come from patent US20140249056A1, “BILAYERS” (ISIS INNOVATION LIMITED, priority 2009, published 2014).
